A549 viability: kills or reduces viability of A549 cells in Nrf2 counter-screen; A549 ARE-Fluc cells, CellTiter-Fluor viability, 18-24 h; Potency, µM (doses to about 46 µM), for inactives: top-dose activity change, negative = cytotoxicity, hits mostly inhibitors; hit rate 0.16% among 390,000; note: potency is the fitted concentration of half-maximal effect; % is set by controls: 0 for no effect and ±100 for the full control effect
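A549 ARE_Fluc cells in 5% FBS OPTI-MEM were exposed to compounds in concentration-response for 18-24 h at 37 deg C. Viability was read by CellTiter-Fluor fluorescence (Ex 405/Em 525) after 30 min, before the luciferase read.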
B2AR arrestin: beta2AR (human) beta-arrestin recruitment activity | P07550 | beta-arrestin recruitment to beta2AR, cell-based reporter | Potency, µM (highest dose often 46.1 µM), for inactives: at the highest dose activation, usual class: activators | hit rate 0.02% among 330,000 | AID 492947;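 note: potency is the fitted concentration of half-maximal effect; 0% = DMSO controls and full agonism = EC100 isoproterenol or metaproterenol; nearly all actives have a fitted effect of over 65% in size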
Nrf2 block: blocks Nrf2 signaling; Potency, µM (series often up to 46 µM), inactives show at the top dose activity change, negative = inhibition, actives largely listed as inhibitors; A549 ARE-Fluc reporter, luciferase luminescence, 18-24 h; hit rate 2.1% among 360,000; note: potency is the fitted concentration of half-maximal effect; % is set by controls: 0 for no effect and ±100 for the full control effect; nearly all actives have a fitted effect of over 60% in size
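Nrf2 function is reported as luminescence of an ARE-controlled luciferase in A549 cells. Compounds were tested at several concentrations, and a CellTiter-Fluor read on the same wells flagged cytotoxicity.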
Nrf2 activator: Nrf2 pathway activation. AREc32 ARE-luciferase reporter (MCF7-derived line), luminescence, 24 h. Potency, µM (series often up to 46.1 µM), for the others: top-dose activation, hits mostly activators. hit rate 0.31% among 410,000; note: potency is the fitted concentration of half-maximal effect; % of control where 0% means no effect; nearly all actives have a fitted effect of over 65% in size
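AREc32 cells carrying an ARE-driven firefly luciferase reporter were seeded at 1000 cells/well in OPTI-MEM with 5% FBS, then exposed to compound for 24 hr at 37 deg C. Luminescence was read with Steady-Glo after 30 min at RT.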
miR-21 reporter: miR-21 reporter, rising signal; HeLa miR-21 FLuc reporter, luciferase, 48 h; Potency, µM (titrated, usually from 38.3 µM), without a hit: top-dose reporter change, positive = more light; AID 2288; 340,000 tested, under 10 active; active = well fitted rising curve with a large enough effect; inconclusive = small, poorly fitted or top-dose-only effect; inactive = no such curve, though single readings can be large or run the other way;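 further: % of control where 0% means no effect; miR-21 action dims this reporter so a rising signal means less miR-21 action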
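HeLa cells endogenously expressing miR-21, stably carrying CMV-driven firefly luciferase with a downstream miR-21 binding site, 2000 cells/well. Titrations up to approximately 40 uM, 48 hours; luciferase luminescence read.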
* marks the source's active call; other numbers are inactive results; ? = inconclusive; nt = no result given. This is a sample that favours compounds with a hit; in the whole collection about 2.2% have one here. Unless noted, calls come from the whole dose curve; as a rule, active = well fitted curve in the direction sought with a large enough effect; inconclusive = small, poorly fitted or top-dose-only effect, or another doubt; inactive = no such curve, though single readings can be large; an effect the other way counts as inactive or inconclusive.

No.	structure	A549 viability	B2AR arrestin	Nrf2 block
1	COc1ccc(S(=O)(=O)N(Cc2nc(-c3ccc(Cl)cc3)no2)C2CCCCC2)cc1	10%	nt	1%
2	COc1cc(Cl)c(C)cc1NC(=O)C(OC(=O)CNC(=O)c1ccccc1)c1ccccc1 (stereo unspecified)	1%	nt	15%
3	C(=N\Nc1ccc2nncn2n1)/c1ccco1	-8%	-1%	3%
4	CCOC(=O)c1c(Nc2cc(C)cc(C)c2)nnc(-c2ccccc2)c1-c1ccccc1	-5%	nt	-1%
5	CCOC(=O)c1c(Nc2cccc(C)c2)nnc(-c2ccccc2)c1-c1ccccc1	-16%	nt	18µM*
6	COc1ccc(NC(=O)CSc2nc3c(oc4ccccc43)c(=O)n2-c2ccc(C)c(C)c2)cc1	0%	nt	-12%
7	Cc1ccc(C)c(S(=O)(=O)NCc2ccc(C(=O)NCc3ccco3)cc2)c1	-2%	0%	7%
8	Cc1ccc(C(=O)NCc2ccco2)cc1S(=O)(=O)Nc1cccc(Cl)c1	-12%	0%	23µM*

No.	Nrf2 activator	miR-21 reporter
1	5%	9%
2	nt	nt
3	10µM*	0%
4	1%	17%
5	2%	?
6	0%	11%
7	4%	-7%
8	3%	1%

Further results
No.	structure	A549 viability	B2AR arrestin	Nrf2 block
9	CSc1nn(Cc2ccc(C)cc2)c(N)c1S(=O)(=O)c1ccccc1	-1%	nt	16µM*
10	Cc1nnc(N/N=C/c2cc([N+](=O)[O-])c(N3CCC(C)CC3)cc2N2CCC(C)CC2)n1N	?	0%	18µM*
11	CC(OC(=O)c1ccccc1Nc1ccc(SC(F)F)cc1)C(N)=O (stereo unspecified)	-3%	0%	26µM*
12	Cc1cccc(N2CCN(S(=O)(=O)c3ccc4[nH]c(=O)ccc4c3)CC2)c1C	-25%	-1%	18µM*
13	Cc1cccc(N2CCN(S(=O)(=O)c3ccc4c(c3)C(C(C)C)C(=O)N4)CC2)c1C (stereo unspecified)	-2%	nt	13µM*
14	COc1ccc(N(CC(=O)NCCc2ccccc2)S(=O)(=O)c2ccccc2)c(OC)c1	-5%	nt	?
15	COc1cc(/C=C/c2[nH]c(=O)[nH]c(=O)c2[N+](=O)[O-])cc([N+](=O)[O-])c1O	16µM*	0%	3%
16	CCC(C)Oc1ccc(/C=C/c2[nH]c(=O)[nH]c(=O)c2[N+](=O)[O-])cc1OC (stereo unspecified)	-17%	0%	-13%

No.	Nrf2 activator	miR-21 reporter
9	1%	20%
10	-3%	20%
11	3%	10%
12	1%	6%
13	0%	29%
14	6%	9%
15	-1%	1%
16	?	-5%

Further structures
No.	structure	A549 viability	B2AR arrestin	Nrf2 block
17	Oc1ccc(Cl)cc1C1C=C(c2ccc3c(c2)OCO3)NC(c2ccc(Br)cc2)N1 (stereo unspecified)	0%	nt	8%
18	Nc1ccccc1C=C1Cc2ccccc2C1=O	2%	nt	?
19	O=C1C(=Cc2cccc(F)c2)Cc2ccccc21	nt	nt	nt
20	CCOc1ccc(N(CC(=O)N2CCN(C(=O)CN(c3ccc(OCC)cc3)S(C)(=O)=O)CC2)S(C)(=O)=O)cc1	-2%	4%	5%
21	CCOc1ccc(N(CC(=O)N2CCC(Cc3ccccc3)CC2)S(C)(=O)=O)cc1	-7%	0%	26µM*
22	CC1CC(C)CN(c2oc(-c3ccc(OCc4ccccc4Cl)cc3)nc2C#N)C1 (stereo unspecified)	0%	nt	-2%
23	Cc1ccc(-n2ncc3c(N4CCC(C)CC4)ncnc32)cc1C	-2%	nt	nt
24	Cc1ccc(Oc2c(C)nc(-c3ccccc3)[nH]c2=O)cc1	-6%	4%	?

No.	Nrf2 activator	miR-21 reporter
17	nt	nt
18	2.8µM*	nt
19	10µM*	nt
20	1%	-1%
21	0%	-4%
22	nt	nt
23	0%	-21%
24	0%	-2%

Additional entries:
No.	structure	A549 viability	B2AR arrestin	Nrf2 block
25	Cc1nc(-c2ccccc2)[nH]c(=O)c1Oc1ccc(Cl)cc1Cl	-9%	-1%	21µM*
26	COc1ccccc1NC(=O)c1sc(-c2ccc(Cl)cc2)cc1N	1%	nt	-1%
27	O=S(=O)(NCc1cccnc1)c1cccn1-c1ncc(C(F)(F)F)cc1Cl	-12%	0%	16µM*
28	CCCNS(=O)(=O)c1cccn1-c1ncc(C(F)(F)F)cc1Cl	-7%	0%	-11%
29	COc1ccc(OCCCn2c(CCNC(=O)C3CCCCC3)nc3ccccc32)cc1	-2%	nt	?

No.	Nrf2 activator	miR-21 reporter
25	-1%	-2%
26	0%	-38%
27	0%	7%
28	0%	-3%
29	nt	nt

Among those listed so far, these contain two or more sulfur atoms.
No.	structure	A549 viability	B2AR arrestin	Nrf2 block
9	CSc1nn(Cc2ccc(C)cc2)c(N)c1S(=O)(=O)c1ccccc1	-1%	nt	16µM*
20	CCOc1ccc(N(CC(=O)N2CCN(C(=O)CN(c3ccc(OCC)cc3)S(C)(=O)=O)CC2)S(C)(=O)=O)cc1	-2%	4%	5%

No.	Nrf2 activator	miR-21 reporter
9	1%	20%
20	1%	-1%

Source: PubChem BioAssay
